What all share (type): protein-complex assay
Test [1] concerns the target T1, Integrin alpha-4/beta-1 (Homo sapiens, UniProt P05556+P13612). In words: Inhibition of alpha4beta1 integrin-mediated human jurkat cell adhesion to fibronectin in absence of human serum albumin.
For a further test, the target named is T2, Integrin alpha-4/beta-7 (Homo sapiens, UniProt P13612+P26010).
T2 sequence (P13612 whole entry): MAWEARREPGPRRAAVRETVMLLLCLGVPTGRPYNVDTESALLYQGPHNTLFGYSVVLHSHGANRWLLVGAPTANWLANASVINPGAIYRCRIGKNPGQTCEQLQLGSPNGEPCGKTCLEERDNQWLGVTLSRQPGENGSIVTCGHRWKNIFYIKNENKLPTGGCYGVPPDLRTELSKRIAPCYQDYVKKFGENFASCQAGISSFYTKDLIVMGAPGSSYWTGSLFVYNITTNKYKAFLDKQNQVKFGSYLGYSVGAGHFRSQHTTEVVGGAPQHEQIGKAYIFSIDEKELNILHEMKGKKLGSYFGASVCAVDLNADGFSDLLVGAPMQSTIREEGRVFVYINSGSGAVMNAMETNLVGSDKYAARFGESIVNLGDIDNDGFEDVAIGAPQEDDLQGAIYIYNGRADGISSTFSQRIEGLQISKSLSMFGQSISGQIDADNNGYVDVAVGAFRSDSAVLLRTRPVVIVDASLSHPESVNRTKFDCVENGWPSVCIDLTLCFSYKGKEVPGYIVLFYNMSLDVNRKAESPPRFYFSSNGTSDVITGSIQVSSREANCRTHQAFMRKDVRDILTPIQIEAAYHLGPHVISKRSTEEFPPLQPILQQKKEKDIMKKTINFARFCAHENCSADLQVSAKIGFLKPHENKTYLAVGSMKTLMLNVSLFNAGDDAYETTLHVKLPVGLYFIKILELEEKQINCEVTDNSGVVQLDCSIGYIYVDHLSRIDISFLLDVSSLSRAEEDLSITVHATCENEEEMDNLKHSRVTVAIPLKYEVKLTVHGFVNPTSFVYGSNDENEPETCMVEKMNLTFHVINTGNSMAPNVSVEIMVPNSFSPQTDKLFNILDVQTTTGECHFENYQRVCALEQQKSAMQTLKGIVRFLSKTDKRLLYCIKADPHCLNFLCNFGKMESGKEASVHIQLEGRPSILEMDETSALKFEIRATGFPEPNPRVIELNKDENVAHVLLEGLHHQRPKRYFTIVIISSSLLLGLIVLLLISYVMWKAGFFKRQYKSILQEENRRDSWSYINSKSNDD
T2 sequence (P26010 whole entry): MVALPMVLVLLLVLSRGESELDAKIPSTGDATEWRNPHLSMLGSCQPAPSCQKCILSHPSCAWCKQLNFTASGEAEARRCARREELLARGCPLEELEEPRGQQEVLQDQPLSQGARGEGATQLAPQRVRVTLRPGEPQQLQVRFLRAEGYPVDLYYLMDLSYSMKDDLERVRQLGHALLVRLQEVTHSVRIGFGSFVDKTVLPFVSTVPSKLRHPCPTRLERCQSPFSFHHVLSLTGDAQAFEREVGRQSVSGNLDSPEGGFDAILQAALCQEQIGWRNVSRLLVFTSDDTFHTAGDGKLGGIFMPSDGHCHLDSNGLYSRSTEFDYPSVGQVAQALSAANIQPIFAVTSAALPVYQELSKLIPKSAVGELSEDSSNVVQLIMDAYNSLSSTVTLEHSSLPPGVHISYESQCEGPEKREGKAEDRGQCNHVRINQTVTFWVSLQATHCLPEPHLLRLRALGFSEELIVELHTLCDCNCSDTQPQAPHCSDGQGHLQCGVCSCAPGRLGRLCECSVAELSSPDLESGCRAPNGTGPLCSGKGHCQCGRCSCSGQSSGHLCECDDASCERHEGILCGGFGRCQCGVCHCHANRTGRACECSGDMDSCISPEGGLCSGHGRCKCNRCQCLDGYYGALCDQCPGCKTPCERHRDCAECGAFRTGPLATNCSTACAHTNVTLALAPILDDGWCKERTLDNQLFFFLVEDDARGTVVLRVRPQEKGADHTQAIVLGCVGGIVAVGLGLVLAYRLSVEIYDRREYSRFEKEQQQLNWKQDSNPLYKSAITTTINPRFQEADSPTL
Description: Inhibition of alpha4beta7 integrin-mediated human 8866 cell adhesion to MadCAM-1.

Protein sequences, listed by entry. Tags and fused reporters are not part of them.
UniProt P05556, whole entry: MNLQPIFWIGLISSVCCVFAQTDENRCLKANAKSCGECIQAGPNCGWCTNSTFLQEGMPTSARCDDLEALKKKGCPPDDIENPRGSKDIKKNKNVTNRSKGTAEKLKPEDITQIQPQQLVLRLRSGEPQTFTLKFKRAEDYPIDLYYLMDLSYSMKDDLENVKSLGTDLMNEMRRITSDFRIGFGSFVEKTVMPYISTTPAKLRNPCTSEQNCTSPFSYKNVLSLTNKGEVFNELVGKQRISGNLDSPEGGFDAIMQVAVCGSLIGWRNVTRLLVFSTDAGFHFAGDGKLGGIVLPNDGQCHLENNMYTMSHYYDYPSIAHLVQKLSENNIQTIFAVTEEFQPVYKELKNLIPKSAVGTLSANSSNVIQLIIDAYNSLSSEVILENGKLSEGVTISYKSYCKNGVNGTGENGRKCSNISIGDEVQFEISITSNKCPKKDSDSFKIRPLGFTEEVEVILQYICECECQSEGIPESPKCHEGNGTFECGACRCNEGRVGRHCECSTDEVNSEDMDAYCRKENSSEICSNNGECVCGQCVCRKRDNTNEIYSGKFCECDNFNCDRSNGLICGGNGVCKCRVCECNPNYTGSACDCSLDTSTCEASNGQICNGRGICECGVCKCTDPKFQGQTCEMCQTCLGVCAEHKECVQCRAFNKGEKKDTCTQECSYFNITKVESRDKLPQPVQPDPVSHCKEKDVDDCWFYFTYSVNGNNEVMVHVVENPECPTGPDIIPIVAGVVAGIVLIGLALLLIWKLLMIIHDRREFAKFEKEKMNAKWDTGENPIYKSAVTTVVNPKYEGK

For test [2], the target named is T1, Integrin alpha-4/beta-1. Description: Inhibition of alpha4beta1 integrin-mediated human jurkat cell adhesion to fibronectin in presence of human serum albumin.

The term IC50 denotes the concentration that gives 50% inhibition.

The structures appear in SMILES notation.

For the compound `CCN(CC)c1ncc(N(CC)C(=O)c2nccs2)c(N[C@@H](Cc2ccc(OC(=O)N3CCCC3)cc2)C(=O)O)n1`, the figures for the 50% inhibitory concentration (IC50) at Integrin alpha-4/beta-1 [1], at Integrin alpha-4/beta-7 and at Integrin alpha-4/beta-1 [2] were 2.9 nM, 12 nM and 2020 nM, respectively.
Turning to `CCN(CC)c1ncc(N(CC)C(=O)N(C)C)c(N[C@@H](Cc2ccc(OC(=O)N3CCCC3)cc2)C(=O)O)n1`, the half-maximal inhibitory concentration (IC50) on Integrin alpha-4/beta-1 [1] came to 5.7 nM; against Integrin alpha-4/beta-7, 14 nM; at Integrin alpha-4/beta-1 [2] it was 1590 nM.
The matching figures for `CCN(CC)c1ncc(N(CC)C(=O)N2CCCCC2)c(N[C@@H](Cc2ccc(OC(=O)N3CCCC3)cc2)C(=O)O)n1`: 3.3 nM, 12 nM and 1540 nM.
The matching figures for `CCN(CC)c1ncc(N(CC)C(=O)N2CCOCC2)c(N[C@@H](Cc2ccc(OC(=O)N3CCCC3)cc2)C(=O)O)n1`: 1.4 nM, 3 nM and 234 nM.

Values taken from ChEMBL document CHEMBL2406934, “Orally available and efficacious α4β1/α4β7 integrin inhibitors” (Bioorg Med Chem Lett, 2013).
